These are literature values, as cited in patent US6858018B1.

The structures appear in SMILES notation. Some compounds may have been tested in ways that are not shown here.

For the data set the following is noted: humans; cited from earlier work.

Regarding `CCC(=O)N(c1ccccc1)C1(COC)CCN(CCc2cccs2)CC1`, the terminal half-life was 2.5 h.
